In doi:10.1101/2019.12.31.891234 one finds Kd data, which are given here for one substance.

Amino acid sequences for entries named in this document (tags omitted). A change or cut given only in a name is not applied to a line headed by its entry.
UniProt Q2XVP4: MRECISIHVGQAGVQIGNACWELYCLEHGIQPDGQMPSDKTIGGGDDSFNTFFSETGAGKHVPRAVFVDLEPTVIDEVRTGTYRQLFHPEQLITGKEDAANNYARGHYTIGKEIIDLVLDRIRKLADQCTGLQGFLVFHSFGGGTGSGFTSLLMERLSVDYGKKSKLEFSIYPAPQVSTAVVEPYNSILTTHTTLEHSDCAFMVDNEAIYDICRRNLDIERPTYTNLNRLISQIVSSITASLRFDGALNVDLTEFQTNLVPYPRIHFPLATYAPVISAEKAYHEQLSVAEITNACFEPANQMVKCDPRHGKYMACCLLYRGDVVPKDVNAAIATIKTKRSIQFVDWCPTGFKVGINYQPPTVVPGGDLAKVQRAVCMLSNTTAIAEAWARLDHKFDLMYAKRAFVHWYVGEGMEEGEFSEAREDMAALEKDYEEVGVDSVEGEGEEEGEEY

The experiment deals with microtubules in LLC-PK1 cells (pig (endogenous in LLC-PK1)) (UniProt Q2XVP4). The experiment in a line: quantitative fluorescence microscopy in live cells.

As usually defined, the Kd is the equilibrium constant for the complex coming apart. Higher therefore signals weaker binding. For the substance “human 2N4R tau tagged with EGFP (from UniProt P10636-8 1-441) (natural protein)”, the Kd was 1100 nM.
